Source: patent US7338958B2, “Sulfoximine-substituted pyrimidines as CDK-and/or VEGF inhibitors, their production and use as pharmaceutical agents” (Schering AG, priority 2003, dated 2008)

Amino acid sequences for entries named in this document (tags omitted). Residues count along the entry.
UniProt P35968, 20-1356: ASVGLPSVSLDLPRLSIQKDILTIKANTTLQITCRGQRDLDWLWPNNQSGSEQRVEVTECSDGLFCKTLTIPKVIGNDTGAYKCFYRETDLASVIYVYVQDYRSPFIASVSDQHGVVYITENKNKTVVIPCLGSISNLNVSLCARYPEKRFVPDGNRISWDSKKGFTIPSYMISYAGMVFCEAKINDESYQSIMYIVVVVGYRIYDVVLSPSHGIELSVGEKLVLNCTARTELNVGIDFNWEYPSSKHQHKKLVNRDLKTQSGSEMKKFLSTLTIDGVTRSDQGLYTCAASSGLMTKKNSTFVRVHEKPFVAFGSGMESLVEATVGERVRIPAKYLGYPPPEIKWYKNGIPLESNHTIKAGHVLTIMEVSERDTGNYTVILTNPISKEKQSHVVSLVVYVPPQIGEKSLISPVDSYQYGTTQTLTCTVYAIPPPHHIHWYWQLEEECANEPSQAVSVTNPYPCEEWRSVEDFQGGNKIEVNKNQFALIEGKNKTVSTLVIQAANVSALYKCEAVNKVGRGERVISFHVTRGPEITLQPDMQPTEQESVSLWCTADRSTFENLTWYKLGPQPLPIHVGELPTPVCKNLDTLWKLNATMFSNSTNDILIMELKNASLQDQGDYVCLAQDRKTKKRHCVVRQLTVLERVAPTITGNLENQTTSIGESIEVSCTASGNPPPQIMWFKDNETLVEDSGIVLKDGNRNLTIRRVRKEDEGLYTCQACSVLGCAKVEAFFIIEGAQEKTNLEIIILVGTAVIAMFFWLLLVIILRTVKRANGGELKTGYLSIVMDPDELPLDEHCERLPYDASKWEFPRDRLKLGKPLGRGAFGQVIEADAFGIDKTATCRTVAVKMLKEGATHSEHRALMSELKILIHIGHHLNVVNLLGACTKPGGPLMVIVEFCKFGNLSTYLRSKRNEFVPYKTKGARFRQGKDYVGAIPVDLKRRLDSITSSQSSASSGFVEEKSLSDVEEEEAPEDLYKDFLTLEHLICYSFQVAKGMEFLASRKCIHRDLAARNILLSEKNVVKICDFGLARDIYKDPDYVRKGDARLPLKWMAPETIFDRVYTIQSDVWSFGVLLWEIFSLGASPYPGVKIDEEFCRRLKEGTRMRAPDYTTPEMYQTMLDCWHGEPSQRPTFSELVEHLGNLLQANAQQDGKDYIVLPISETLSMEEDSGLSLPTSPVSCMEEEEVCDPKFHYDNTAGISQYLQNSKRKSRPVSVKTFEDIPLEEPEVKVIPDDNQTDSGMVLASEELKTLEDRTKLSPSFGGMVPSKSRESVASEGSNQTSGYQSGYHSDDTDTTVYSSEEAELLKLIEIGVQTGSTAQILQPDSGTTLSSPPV
UniProt P06493, whole entry: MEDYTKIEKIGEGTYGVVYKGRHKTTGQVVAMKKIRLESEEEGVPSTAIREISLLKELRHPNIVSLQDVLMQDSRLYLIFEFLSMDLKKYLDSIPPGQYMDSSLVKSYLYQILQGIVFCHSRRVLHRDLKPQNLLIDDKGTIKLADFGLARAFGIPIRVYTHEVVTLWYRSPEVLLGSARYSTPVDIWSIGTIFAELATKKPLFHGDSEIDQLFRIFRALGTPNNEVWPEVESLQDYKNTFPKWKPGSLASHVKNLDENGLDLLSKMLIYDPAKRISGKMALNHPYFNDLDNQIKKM

Tests used:
[1] = molecular target: T1, VEGF receptor tyrosine kinase-2 (Homo sapiens, UniProt P35968); assay: VEGF Receptor-2 Kinase Assay; assay type: biochemical; settings: poly-(Glu4Tyr) substrate, 33P-ATP, 10 minutes at 22° C.; read-out: VEGF-R2 IC50
T1 construct: GST; made in house; host or cells: baculovirus-infected insect cells (Sf9)

[2] = molecular target: T2, CDK2/CycE (Homo sapiens, UniProt P24941); assay: CDK2/CycE Kinase Assay; assay type: biochemical; settings: histone IIIS substrate, 33P-ATP, 15 minutes at 22° C.
T2 construct: GST; purchased ProQinase GmbH, Freiburg; host or cells: baculovirus-infected insect cells (Sf9)

[3] = tested on: HCT 116, human colon cancer cells; assay: Proliferation assay, HCT116; assay type: cell-based; settings: HCT-116, 96 h, 4 days incubation, crystal violet
Text: Cultivated human tumor cells (MCF7, hormone-independent human breast cancer cells, related to ATCC HTB22; NCI-H460, human non-small-cell lung cancer cells, ATCC HTB-177, HCT 116, human colon cancer cells, ATCC CCL-247; DU 145, hormone-independent human prostate cancer cells, ATCC HTB-81; MaTu-MDR, hormone-independent, multiple pharmaceutical agent-resistant human breast cancer cells, EPO-GmbH, Berlin) were flattened out at a density of about 5000 cells/measuring point, depending on the growth rate of the respective cells, in a 96-well multititer plate in 200 μl of the corresponding growth medium. […] The cell proliferation was determined by coloring the cells with crystal violet: the cells were fixed by adding 20 μl/measuring point of an 11% glutaric aldehyde solution for 15 minutes at room temperature. […] The extinction was determined by photometry at a wavelength of 595 nm. The change of cell growth, in percent, was calculated by normalization of the measured values to the extinction values of the zero-point plate (=0%) and the extinction of the untreated (0 μm) cells (=100%).

[4] = molecular target: T3, CDK1/CycB (Homo sapiens, UniProt P06493); assay: CDK1/CycB Kinase Assay; assay type: biochemical; settings: histone IIIS substrate, 33P-ATP, 15 minutes at 22° C.
T3 construct: GST; purchased ProQinase GmbH, Freiburg; host or cells: baculovirus-infected insect cells (Sf9)

[5] = tested on: NCI-H460, human non-small-cell lung cancer cells; assay: Proliferation assay, H460; assay type: cell-based; settings: NCI-H460, 96 h, 4 days incubation, crystal violet

Row | SMILES | IC50 [1] | IC50 [2] | also measured
1 | C[C@@H](Nc1nc(Nc2ccc(S(=N)(=O)C3CCCC3)cc2)ncc1Br)C(C)(C)O (mixture of isomers) [Example 1.11, (RS)-S-[4-({5-bromo-4-[(R)-(2-hydroxy-1,2-dimethylpropyl)amino]pyrimidin-2-yl}amino)phenyl]-S-cyclopentylsulfoximide] | 0.083 µM |  | 
2 | C[C@@H](O)[C@@H](C)Nc1nc(Nc2ccc(S(C)(=N)=O)cc2)ncc1Br (single isomer, unassigned) [Example 1.2] | 0.048 µM |  | IC50 [3]: 0.02 µM
3 | C[C@@H](O)[C@@H](C)Oc1nc(Nc2ccc(S(=N)(=O)CCO)cc2)ncc1Br (mixture of isomers) [Example 1.21, (RS)-S-[4-({5-bromo-4-[(1R,2R)-2-hydroxy-1-methyl-propoxy]pyrimidin-2-yl}amino)phenyl]-S-(2-hydroxyethyl)sulfoximide] |  | 0.006 µM | 
4 | C[C@@H](Nc1nc(Nc2ccc(S(=N)(=O)C3CC3)cc2)ncc1Br)C(C)(C)O (mixture of isomers) [Example 1.6, (RS)-S-[4-({5-bromo-4-[(R)-(2-hydroxy-1,2-dimethylpropyl)amino]pyrimidin-2-yl}amino)phenyl]-S-cyclopropylsulfoximide] | 0.029 µM |  | 
5 | CCC(Sc1nc(Nc2ccc(S(C)(=N)=O)cc2)ncc1Br)C(C)(C)O (racemic) [Example 3.8, (RS)-S-[4-({5-bromo-4-[(RS)-(1-ethyl-2-hydroxy-2-methylpropyl)sulfanyl]pyrimidin-2-yl}amino)phenyl]-S-methyl sulfoximide] |  |  | IC50 [4]: 0.091 µM
6 | Cc1cc(Nc2ncc(Br)c(N[C@H](C)C(C)(C)O)n2)ccc1S(C)(=N)=O (mixture of isomers) [Example 1.57, (RS)-S-[4-({5-bromo-4-[(R)-(2-hydroxy-1,2-dimethylpropyl)amino]pyrimidin-2-yl}amino)-2-methylphenyl]-S-methyl sulfoximide] |  | 0.004 µM | 
7 | COc1cc(Nc2ncc(Br)c(N[C@H](C)[C@@H](C)O)n2)ccc1S(C)(=N)=O (single isomer, unassigned) [Example 1.25] |  |  | IC50 [4]: 0.002 µM
8 | COc1cc(Nc2ncc(Br)c(N[C@H](C)[C@@H](C)O)n2)ccc1S(C)(=N)=O (single isomer, unassigned) [Example 1.26] |  |  | IC50 [5]: 0.03 µM
9 | COc1cc(Nc2ncc(Br)c(N[C@H](C)[C@@H](C)O)n2)ccc1S(C)(=N)=O (mixture of isomers) [Example 1.26, (RS)-S-[4-({5-bromo-4-[(1R,2R)-(2-hydroxy-1-methylpropyl)amino]pyrimidin-2-yl}amino)-2-methoxyphenyl]-S-methyl sulfoximide] |  |  | IC50 [4]: 0.002 µM

More lines, main results first:

Row | IC50 [1] | IC50 [2] | SMILES | also measured
10 | 0.2 µM |  | CCC(Sc1nc(Nc2ccc(S(C)(=N)=O)cc2)ncc1Br)C(C)O (racemic) [Example 3.6, (RS)-S-[4-({5-bromo-4-[(RS,RS)-(1-ethyl-2-hydroxypropyl)sulfanyl]pyrimidin-2-yl}amino)phenyl]-S-methyl sulfoximide] | 
11 | 0.25 µM | 0.041 µM | CC(O)CSc1nc(Nc2ccc(S(C)(=N)=O)cc2)ncc1Br (racemic) [Example 3.4, (RS)-S-[4-({5-bromo-4-[(RS)-(2-hydroxy-propyl)sulfanyl]pyrimidin-2-yl}amino)phenyl]-S-methyl sulfoximide] | 
12 |  | 0.033 µM | CS(=N)(=O)c1ccc(Nc2ncc(Br)c(Nc3ccccc3)n2)cc1 (racemic) [Example 2.3, (RS)-S-(4-{[5-bromo-4-(phenylamino)pyrimidin-2-yl]amino}phenyl)-S-methyl sulfoximide] | 
13 | 0.07 µM | 0.016 µM | CC(C)Nc1nc(Nc2ccc(S(C)(=N)=O)cc2)ncc1Br (racemic) [Example 2.0, (RS)-S-(4-{[5-bromo-4-(isopropylamino)pyrimidin-2-yl]amino}phenyl)-S-methyl sulfoximide] | 
14 | 0.11 µM | 0.011 µM | CC(Sc1nc(Nc2ccc(S(C)(=N)=O)cc2)ncc1Br)C(C)(C)O (racemic) [Example 3.7, (RS)-S-[4-({5-bromo-4-[(RS)-(2-hydroxy-1,2-dimethylpropyl)sulfanyl]pyrimidin-2-yl}amino)phenyl]-S-methyl sulfoximide] | 
